Results as given in paper PMC5648829 (Scientific Reports, 2017).

Target: T1, LTA4H (Homo sapiens, UniProt P09960)
T1 sequence (P09960 1-611): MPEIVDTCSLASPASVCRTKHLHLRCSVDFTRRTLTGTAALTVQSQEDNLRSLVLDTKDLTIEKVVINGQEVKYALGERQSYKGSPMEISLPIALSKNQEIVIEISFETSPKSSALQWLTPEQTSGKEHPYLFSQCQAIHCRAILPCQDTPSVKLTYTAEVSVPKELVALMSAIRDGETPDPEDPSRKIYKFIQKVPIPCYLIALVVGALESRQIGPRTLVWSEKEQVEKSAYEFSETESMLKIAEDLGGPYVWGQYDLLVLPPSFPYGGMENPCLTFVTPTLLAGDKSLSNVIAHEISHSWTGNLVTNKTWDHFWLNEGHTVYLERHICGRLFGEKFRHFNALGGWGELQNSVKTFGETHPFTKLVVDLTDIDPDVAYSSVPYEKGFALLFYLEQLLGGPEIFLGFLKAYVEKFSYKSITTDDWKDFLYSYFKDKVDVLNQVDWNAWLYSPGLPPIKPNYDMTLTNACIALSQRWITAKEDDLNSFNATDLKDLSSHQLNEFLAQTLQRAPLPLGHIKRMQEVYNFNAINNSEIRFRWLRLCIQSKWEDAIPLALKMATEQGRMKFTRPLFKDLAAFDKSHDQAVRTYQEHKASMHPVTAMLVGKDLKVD
Assay: PGP degradation assay in human blood
Type: cell-based
Set-up: Fresh blood was collected in heparinized tubes by venipuncture from volunteers; from tissue; host or cells: fresh human whole blood from volunteers, diluted 1:3 in RPMI
Settings: DG-051 20 µM, after 24 h
Protocol: Fresh blood was collected in heparinized tubes by venipuncture from volunteers from the Novartis Blood Donor Center, Basel. The blood was diluted 1:3 in Roswell Park Memorial Institute (RPMI) containing HEPES (0.025 M). […] PGP and LPS were added at final concentrations of 2 µg/ml each and incubated up to 24 h at 37 °C, 5% CO2 and 90% humidity before samples were collected for LC-MS/MS analysis.

Question: With O=C(O)CCCN1CCC[C@H]1COc1ccc(Oc2ccc(Cl)cc2)cc1 [DG-051, 4-[(2S)-2-{[4-(4-chlorophenoxy)phenoxy]methyl}-1-pyrrolidinyl]butanoic acid] as the molecule, how does the “initial PGP levels still remaining” value read?
Answer: The value was “over 60%”.
